The target in series [1] is T1, Amine oxidase [flavin-containing] B (Homo sapiens, UniProt P27338). Nature of the series: Inhibition of human recombinant soluble MAO-B expressed in Pichia pastoris incubated for 30 mins prior to substrate addition measured after 60 mins by MAO-Glo assay.
For series [2], the target named is T1, Amine oxidase [flavin-containing] B. In words: Inhibition of human recombinant soluble MAO-B assessed as change in melting temperature at 100 uM after 20 mins by SYPRO orange staining-based fluorescence assay. In short, it runs like this: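 Soluble human MAO-B was expressed in Pichia pastoris and desalted into PBS pH 7.5 to remove detergent; final concentration 3.4 µM. It was preincubated with serial compound dilutions (0.5–10 µM or 1.7–100 µM) for 20 min at 4 °C in 10% DMSO. 1x SYPRO orange was then added and samples ramped 25–80 °C at 1 °C/s. Boltzmann Tm was taken from the ~50–70 °C region, and ΔTm = Tm(compound) − Tm(DMSO only).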

Amino acid sequences for entries named in this document (tags omitted).
UniProt P27338, whole entry: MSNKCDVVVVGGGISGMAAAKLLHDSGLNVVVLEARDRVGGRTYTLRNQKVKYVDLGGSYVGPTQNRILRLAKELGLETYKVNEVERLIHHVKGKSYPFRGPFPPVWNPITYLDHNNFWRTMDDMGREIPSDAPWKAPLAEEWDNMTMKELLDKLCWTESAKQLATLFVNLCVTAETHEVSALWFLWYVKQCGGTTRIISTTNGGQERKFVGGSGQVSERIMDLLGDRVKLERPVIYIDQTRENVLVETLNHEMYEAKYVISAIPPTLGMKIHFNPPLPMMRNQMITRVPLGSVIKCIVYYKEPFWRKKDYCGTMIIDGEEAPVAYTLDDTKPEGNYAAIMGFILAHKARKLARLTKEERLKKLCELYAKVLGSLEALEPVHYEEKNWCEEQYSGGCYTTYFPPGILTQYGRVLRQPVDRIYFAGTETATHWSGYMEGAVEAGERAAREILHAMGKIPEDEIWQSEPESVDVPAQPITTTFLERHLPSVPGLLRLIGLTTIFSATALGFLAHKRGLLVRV

This note sets out measurements from ChEMBL document CHEMBL3399931, “Reversible and irreversible small molecule inhibitors of monoamine oxidase B (MAO-B) investigated by biophysical techniques” (Bioorg Med Chem, 2015).

As usually defined, the pKi is the Ki on a negative log10 scale, so that one unit is a factor of ten.

pKi: −log10 of the molar value.

For `NNCCc1ccccc1` [PHENELZINE], in series [1], the pKi is 7.03. The Activity result in series [2] is reported as “Not Active”.
